Assay results taken from patent US20220265842A1, “ANTI-CD40 ANTIBODY DRUG CONJUGATES” (priority 2017, published 2022).

Assay: Size exclusion chromatography (SEC): monomer / aggregation of ADC
Type: physicochemical
Settings: purified DAR2 / DAR4 ADC fraction after AEC

B1: Example 4-conjugated (human) (n=2) (conjugate, listed as Homo sapiens)
heavy: MVRLPLQCVLWGCLLTAVHPEPPTACREKQYLINSQCCSLCQPGQKLVSDCTEFTETECLPCGESEFLDTWNRETHCHQHKYCDPNLGLRVQQKGTSETDTICTCEEGWHCTSEACESCVLHRSCSPGFGVKQIATGVSDTICEPCPVGFFSNVSSAFEKCHPWTSCETKDLVVQQAGTNKTDVVCGPQDRLRALVVIPIIFGILFAILLVLVFIKKVAKKPTNKAPHPKQEPQEINFPDDLPGSNTAAPVQETLHGCQPVTQEDGKESRISVQERQ
light: EPPTACREKQYLINSQCCSLCQPGQKLVSDCTEFTETECLPCGESEFLDTWNRETHCHQHKYCDPNLGLRVQQKGTSETDTICTCEEGWHCTSEACESCV
modifications: drug linker conjugated
  aggregation: 0%
